# Like-named read-outs stand apart in the source and are kept apart here.
# Key:
# [1] = system: Calu-3 xenograft model; assay: In vivo activity in the Calu-3 xenograft model; parameters: species or system SCID mice; details: 1 i.p. injection of 3 mg/kg at D6, about DAR 4, tumors 250-260 mm^3; p<0.05 vs naked antibody
# Description: In order to confirm the in vivo efficacy of antibodies coupled to G-13 or E-13 compounds, they have been coupled to Tratuzumab and tested in the HER2 sensitive xenograft model Calu-3 known for its HER2 amplification and (3) expression. The antibody Tratuzumab was purchased from Euromedex, 24 Rue des Tuileries 67460 SOUFFELWEYERSHEIM/France.
# All animal procedures were performed according to the guidelines of the 2010/63/UE Directive on the protection of animals used for scientific purposes. The protocol was approved by the Animal Ethical Committee of the Pierre Fabre Institute. Seven millions Calu-3 cells were injected subcutaneous into 7 weeks old SCID mice.
# Six days after Calu-3 cell implantation, when tumors reached an average size of 250-260 mm^3, the animals were divided into groups of 6 mice according to tumor size and aspect. The different treatments were inoculated by intraperitoneal injections. The health status of animals was monitored daily. Tumor volume was measured twice a week with an electronic calliper until study end. Tumor volume is calculated with the following formula: (length×width^2)/2. Toxicity was evaluated following the weight of animals three times per week. […] In this example, the anti-tumor activity of Tratuzumab mAb coupled with either E-13 or G-13 at about DAR 4 was evaluated after 1 injections of a 3 mg/kg dose at D6. […]
# [2] = system: JIMT-1 xenograft model; assay: In vivo activity in the JIMT-1 xenograft model; parameters: species or system SCID mice
# [3] = system: Calu-3 xenograft model; details: 15 mg/kg every 6 days; published data (Cretella et al. 2014); cited from earlier work
# [4] = system: JIMT-1 xenograft model; details: cited from earlier work; for activity of multiple injections: 15 mg/kg Q6dn, published data
substance,measurement,setting,value
Trastuzumab-G-13,tumor growth,[1],complete tumor growth regression in all treated mice
same,tumor growth inhibition,"[2]; tumor volume 650 mm^3 (Days 36) at treatment, 20 days after a single injection",more than 50%
Trastuzumab: antibody Trastuzumab (Herceptin; 4D5; Genentech) which targets HER2; purchased from Euromedex,anti-tumoral effect,"[2]; Trastuzumab alone, first experiment (FIG. 5)",did not have any anti-tumoral effect
Trastuzumab-E-13,tumor growth,[1],complete tumor growth regression in all treated mice
TDM-1: ADC on the market: Trastuzumab linked to the antimicrotubule agent DM1 (a maytansinoid),tumor regression,[3],did not induced complete regression
same,activity of multiple injections,[4]; compared with 350 mm^3 experiment,inactive
same,activity of multiple injections,[4]; compared with 650 mm^3 experiment,inactive
same,potency compared with Trastuzumab-E-13 or Trastuzumab-G-13,"[4]; 15 mg/kg every 6 days, published data (Barok et al. 2011)",seems to be less potent

# Source: patent US9669106B2, “Conjugate of monomethyl auristatin F and trastuzumab and its use for the treatment of cancer” (Pierre Fabre Medicament, priority 2015, dated 2017)
